The target of the assay is Kappa-type opioid receptor (Cavia porcellus, UniProt P41144). Kind of assay: Displacement of [3H]-DPN from guinea pig kappa opioid receptor expressed in CHO-K1 cell membranes by radioligand binding assay. In outline: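 Membranes from CHO-K1 cells stably transfected with human recombinant μ or δ receptor, or guinea pig κ receptor; competition with [3H]-DPN radioligand; affinity reported as pKi.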
In general terms: Displacement assays read how much labelled ligand stays bound in the presence of the test substance.

Amino acid sequences for entries named in this document (tags omitted). A change or cut given only in a name is not applied to a line headed by its entry.
UniProt P41144: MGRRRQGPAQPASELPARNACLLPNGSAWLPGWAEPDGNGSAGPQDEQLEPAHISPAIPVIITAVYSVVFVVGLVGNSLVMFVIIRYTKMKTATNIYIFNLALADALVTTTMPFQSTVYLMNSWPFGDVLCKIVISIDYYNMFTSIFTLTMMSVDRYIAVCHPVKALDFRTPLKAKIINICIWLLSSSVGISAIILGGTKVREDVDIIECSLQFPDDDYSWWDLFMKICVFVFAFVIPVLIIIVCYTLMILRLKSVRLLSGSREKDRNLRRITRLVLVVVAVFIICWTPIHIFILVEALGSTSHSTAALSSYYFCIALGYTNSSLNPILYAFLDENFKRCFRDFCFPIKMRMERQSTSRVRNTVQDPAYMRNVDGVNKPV

For `NC(=O)c1cccc([C@H]2C[C@H]3CC[C@@H](C2)N3CCN(CCc2ccccc2)C(=O)CO)c1`, the Ki (in general, a measure of affinity in units of concentration, obtained from inhibition or displacement) was 0.794 nM.

The record behind these values is ChEMBL document CHEMBL4406921, “Discovery of Axelopran (TD-1211): A Peripherally Restricted μ-Opioid Receptor Antagonist” (ACS Med Chem Lett, 2019).
